How the values were obtained:
human ATP6V1A C138S = human ATP6V1A C138S (Homo sapiens, UniProt P38606, C138S); test: Probe labeling of 3×FLAG-tagged ATP6V1A with cysteine 138 to serine mutation in transfected 293 cells; conditions: 293 cells transfected with 3×FLAG-tagged human ATP6V1A
Description: FIG. 11. Identification of probe modification site in ATP6V1A. Top panel is an in-gel fluorescence image and bottom is a western blot.
(§1) To determine the SAR, a series of electrophilic quinazolines synthesized were screened for ones that can inhibit the probe labeling. Bafilomycin A1, a known V-ATPase inhibitor targeting V0 domain, was included as a control in the screen. […] To measure the potency of Formula I at inhibiting ATP6V1A labeling by QZ1, 293 cells were first incubated with Formula I for 30 minutes, and then the cells were washed twice with PBS followed by probe addition. […] Furthermore, the time course of ATP6V1A labeling by probe QZ1 was determined. 293 Cells were treated with 100 nM of QZ1 for various lengths of time (ranging from 1 minute to 2 hours). At 5 minutes, intense labeling (close to saturation) of ATPase was observed (FIG. 10). […] To test if probe QZ1 affects V-ATPase function, the probe was applied to a pH recovery assay to study V-ATPase inhibition in cells, which involves pre-treatment with bafilomycin and measuring vesicle re-acidification after it has been washed off. Immediately after bafilomycin washout, cells were treated with probe QZ1 at various concentrations, labeled with a fluorescent dye DND-99, followed by lysis and fluorescence measurement after 3 h. Probe QZ1 inhibited vesicle re-acidification with an apparent IC50 value of 30 nM (FIG. 12).

Chains of the proteins cited; added tags and fusions are not shown. Lines headed by an entry give the natural chain unless they say otherwise; changes in a name come on top.
UniProt P38606, whole entry: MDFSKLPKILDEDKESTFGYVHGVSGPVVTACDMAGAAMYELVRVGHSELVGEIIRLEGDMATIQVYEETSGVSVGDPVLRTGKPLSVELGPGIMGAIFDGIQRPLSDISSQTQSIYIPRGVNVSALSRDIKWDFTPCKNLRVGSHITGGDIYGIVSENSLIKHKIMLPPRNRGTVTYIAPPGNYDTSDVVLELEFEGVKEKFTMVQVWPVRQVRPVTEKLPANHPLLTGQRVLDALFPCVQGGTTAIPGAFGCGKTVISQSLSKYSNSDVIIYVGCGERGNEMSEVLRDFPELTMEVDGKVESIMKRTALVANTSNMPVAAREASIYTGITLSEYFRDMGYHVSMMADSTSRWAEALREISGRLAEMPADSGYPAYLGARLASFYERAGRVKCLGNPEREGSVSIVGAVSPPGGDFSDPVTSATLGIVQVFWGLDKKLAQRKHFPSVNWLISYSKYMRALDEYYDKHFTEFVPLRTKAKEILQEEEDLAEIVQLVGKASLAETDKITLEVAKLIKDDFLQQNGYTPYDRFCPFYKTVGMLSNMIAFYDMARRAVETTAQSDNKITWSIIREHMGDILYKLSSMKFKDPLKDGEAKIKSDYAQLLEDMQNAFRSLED
UniProt P38606, whole entry C138S: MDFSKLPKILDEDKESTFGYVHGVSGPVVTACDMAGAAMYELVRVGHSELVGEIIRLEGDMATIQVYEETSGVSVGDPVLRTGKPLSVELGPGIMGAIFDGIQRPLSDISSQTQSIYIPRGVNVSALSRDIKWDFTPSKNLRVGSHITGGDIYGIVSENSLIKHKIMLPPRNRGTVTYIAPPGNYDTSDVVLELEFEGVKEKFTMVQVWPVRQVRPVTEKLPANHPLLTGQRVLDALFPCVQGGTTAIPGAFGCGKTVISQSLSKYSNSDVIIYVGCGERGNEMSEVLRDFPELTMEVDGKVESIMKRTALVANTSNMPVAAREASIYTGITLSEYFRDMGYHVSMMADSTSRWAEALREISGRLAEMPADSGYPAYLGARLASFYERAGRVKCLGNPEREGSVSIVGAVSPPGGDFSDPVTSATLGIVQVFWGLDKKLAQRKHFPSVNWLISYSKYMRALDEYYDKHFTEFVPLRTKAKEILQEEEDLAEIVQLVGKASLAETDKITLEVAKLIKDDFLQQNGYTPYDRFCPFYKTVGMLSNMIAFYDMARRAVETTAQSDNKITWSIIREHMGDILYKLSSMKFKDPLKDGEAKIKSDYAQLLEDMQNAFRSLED

[1] = target: vacuolar ATPase catalytic subunit A (ATP6V1A) (Homo sapiens, UniProt P38606); test: Cellular protein labeling by probe QZ1, CuAAC with TAMRA-azide and in-gel fluorescence; conditions: 293 cells, 100 nM QZ1, time course 1 minute to 2 hours
Description: FIG. 3. Specific labeling of a cellular protein by the probe. 293 cells were labeled by probe QZ1 for 30 min, lysed, followed by CuAAC-mediated conjugation with TAMRA-azide and in-gel fluorescence imaging.
FIG. 10. Rapid target occupancy by the probe QZ1 in cells.
All the clinically used inhibitors of epidermal growth factor receptor (EGFR) and Her2, including erlotinib, gefitinib, lapatinib, afatinib, poziotinib and dacomitinib, contain a heterocyclic core of 4-anilinoquinazoline. A series of quinazolines containing electrophiles at the 7 position to achieve covalent inhibition of protein kinases were prepared (FIG. 1). In an effort to monitor the cellular selectivity of these electrophilic quinazolines, one electrophilic quinazoline (Formula I) was derivatized with a terminal alkyne group as a reporter at the 3′ position of the anilino group (FIG. 2). […]
To determine the SAR, a series of electrophilic quinazolines synthesized were screened for ones that can inhibit the probe labeling. […] Furthermore, the time course of ATP6V1A labeling by probe QZ1 was determined. […] Immediately after bafilomycin washout, cells were treated with probe QZ1 at various concentrations, labeled with a fluorescent dye DND-99, followed by lysis and fluorescence measurement after 3 h. […]

V-ATPase = V-ATPase (Homo sapiens, UniProt P38606); test: pH recovery assay: vesicle re-acidification after bafilomycin washout; conditions: read-out: apparent IC50 for inhibition of vesicle re-acidification; probe added after bafilomycin washout, DND-99 dye, fluorescence measured after 3 h
Description: FIG. 12. Effects of QZ1 on V-ATPase re-acidification.
as §1

Q: How did the “effect of mutation of cysteine 138 to serine in ATP6V1A on probe labeling” value (human ATP6V1A C138S) turn out when C#Cc1cccc(Nc2ncnc3cc(NC(=O)CCl)ccc23)c1 was run?
A: abolished probe labeling

Q: What about the “time at which intense labeling (close to saturation) of ATPase was observed” value [1] of the same compound?
A: 5 min

Q: And the IC50 (V-ATPase)?
A: 30 nM
